A short description of the data set: Water solubility of the chelating compounds. The data set is classed as physicochemical. Particulars: aqueous, high pH.

On to Desferrioxamine-p-arylazide [DFO-ArN3], for which the solubility result is on record as “sparingly soluble”.
